Values quoted from earlier work, collected in paper PMC8867396 (Nature, 2021).

Protein sequences, listed by entry. Tags and fused reporters are not part of them.
UniProt Q5BJF2, whole entry: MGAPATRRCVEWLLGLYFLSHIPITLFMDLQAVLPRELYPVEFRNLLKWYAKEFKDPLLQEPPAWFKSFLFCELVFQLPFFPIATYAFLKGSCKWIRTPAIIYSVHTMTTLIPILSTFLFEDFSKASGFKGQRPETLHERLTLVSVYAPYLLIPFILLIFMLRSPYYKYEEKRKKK

Target: human σ2 receptor (Homo sapiens, UniProt Q5BJF2)
Settings: read-out: σ2 affinity; well-established ligand; cited from earlier work

## COc1cccc2c1CCCC2CCCN1CCN(C2CCCCC2)CC1 (stereo not shown) [PB28, reference compound]
  Ki: 5 nM
